{"source": "paper PMC13086964", "about": "“USP7 deubiquitinase stabilizes FAN1 to support DNA crosslink repair and suppress CAG repeat expansion” (Nature Communications, 2026)", "key": {"[1]": {"system": "polyubiquitinated GFP-FAN1", "assay": "in vitro deubiquitination assay", "assay_type": "biochemical, human", "settings": "immune-purified from HEK293T, DUB buffer 50 mM Tris-HCl pH 7.5, 2 h at 37 °C", "method": "HEK293T cells were co-transfected with plasmids encoding HA-ubiquitin wt and GFP-FAN1 wt, respectively. 24 h after transfection, cells were washed twice with cold PBS and directly lysed in 1 ml of RIPA buffer (50 mM Tris-HCl pH 7.5, 150 mM NaCl, 1% IGEPAL, 0.5% sodium deoxycholate, 0.1% SDS) supplemented with 2 mM MgCl2, cOmplete inhibitor cocktail (Roche), phosphoSTOP (Roche), 25U/ml benzonase, 0.1 mM PMSF and 20 mM N-ethylmaleimide (NEM). Lysates were incubated for 5 min at room temperature and then centrifuged at 15000 g for 15 min. Between 1 and 3 mg of lysates were incubated with ChromoTek GFP-Trap® Agarose resin (Proteintech) for 2 h or overnight at 4 °C. Beads were then collected by centrifugation, washed once with RIPA buffer, two times with NTEN 500 (0.5% NP-40, 0.1 mM EDTA, 20 mM Tris-HCl pH 7.4 and 500 mM NaCl), once with TEN300 and four times with TEN100 buffer. Beads were then equilibrated in DUB buffer (50 mM Tris-HCl, pH 7.5, 50 mM NaCl, 1 mM MgCl2, 1 mM DTT), equally distributed in reaction tubes and incubated with purified recombinant His-USP7 for 2 h at 37 °C at low rpm. The unbound fraction (supernatant) was separated from the affinity resin following centrifugation, and the reaction was blocked by the addition of 5x SDS sample buffer. Samples were boiled and analysed by SDS-PAGE followed by immunoblotting."}, "FAN1-NTD": {"system": "FAN1-NTD", "assay": "GST pull-down", "assay_type": "binding, human", "settings": "GST-FAN1-NTD (aa 1-372), 0.5 µg USP7, 1 h at 4 °C", "method": "For GST pull-down assays, GST fusion plasmids were transformed in BL21 RIL (CodonPlus) E. coli (Stratagene) and recombinant proteins were expressed by incubating the bacteria for 24 h at 16 °C after the addition of 100 μM IPTG. After centrifugation, the bacterial pellet was resuspended in cold PBS, supplemented with 1% Triton X-100 and protease inhibitors (1 mM PMSF, 1 mM benzamidine, and cOmplete™ Protease Inhibitor Cocktail). After sonication and centrifugation, GST-tagged FAN1 was purified from soluble extracts using Glutathione Sepharose 4 Fast Flow beads (GE Healthcare). GST fusion proteins bound to glutathione beads were mixed with 0.5 µg of human recombinant USP7 (R&D Systems) and incubated for 1 h at 4 °C in 1 ml of PBS-1% Triton. Beads were then washed three times with NTEN300 buffer (0.5% NP-40, 0.1 mM EDTA, 20 mM Tris-HCl pH 7.4 and 300 mM NaCl) and once with TEN100 (20 mM Tris-HCl pH 7.4, 0.1 mM EDTA and 100 mM NaCl) buffer. Recovered complexes were boiled in SDS sample buffer and analysed by SDS–PAGE followed by immunoblotting."}}}
{"substance": "recombinant USP7: human recombinant full-length USP7 (R&D Systems # E-519)", "values": [{"measurement": "deubiquitination of polyubiquitinated GFP-FAN1", "setting": "[1]", "value": "deubiquitinates"}, {"measurement": "physical interaction with FAN1-NTD", "setting": "FAN1-NTD", "value": "confirmed a physical interaction"}]}
